{
  "sequences": {"note": "Chains of the proteins cited; added tags and fusions are not shown. Lines headed by an entry give the natural chain unless they say otherwise; changes in a name come on top. Residues count along the entry.", "UniProt A0A287BIN3, 25-1109": "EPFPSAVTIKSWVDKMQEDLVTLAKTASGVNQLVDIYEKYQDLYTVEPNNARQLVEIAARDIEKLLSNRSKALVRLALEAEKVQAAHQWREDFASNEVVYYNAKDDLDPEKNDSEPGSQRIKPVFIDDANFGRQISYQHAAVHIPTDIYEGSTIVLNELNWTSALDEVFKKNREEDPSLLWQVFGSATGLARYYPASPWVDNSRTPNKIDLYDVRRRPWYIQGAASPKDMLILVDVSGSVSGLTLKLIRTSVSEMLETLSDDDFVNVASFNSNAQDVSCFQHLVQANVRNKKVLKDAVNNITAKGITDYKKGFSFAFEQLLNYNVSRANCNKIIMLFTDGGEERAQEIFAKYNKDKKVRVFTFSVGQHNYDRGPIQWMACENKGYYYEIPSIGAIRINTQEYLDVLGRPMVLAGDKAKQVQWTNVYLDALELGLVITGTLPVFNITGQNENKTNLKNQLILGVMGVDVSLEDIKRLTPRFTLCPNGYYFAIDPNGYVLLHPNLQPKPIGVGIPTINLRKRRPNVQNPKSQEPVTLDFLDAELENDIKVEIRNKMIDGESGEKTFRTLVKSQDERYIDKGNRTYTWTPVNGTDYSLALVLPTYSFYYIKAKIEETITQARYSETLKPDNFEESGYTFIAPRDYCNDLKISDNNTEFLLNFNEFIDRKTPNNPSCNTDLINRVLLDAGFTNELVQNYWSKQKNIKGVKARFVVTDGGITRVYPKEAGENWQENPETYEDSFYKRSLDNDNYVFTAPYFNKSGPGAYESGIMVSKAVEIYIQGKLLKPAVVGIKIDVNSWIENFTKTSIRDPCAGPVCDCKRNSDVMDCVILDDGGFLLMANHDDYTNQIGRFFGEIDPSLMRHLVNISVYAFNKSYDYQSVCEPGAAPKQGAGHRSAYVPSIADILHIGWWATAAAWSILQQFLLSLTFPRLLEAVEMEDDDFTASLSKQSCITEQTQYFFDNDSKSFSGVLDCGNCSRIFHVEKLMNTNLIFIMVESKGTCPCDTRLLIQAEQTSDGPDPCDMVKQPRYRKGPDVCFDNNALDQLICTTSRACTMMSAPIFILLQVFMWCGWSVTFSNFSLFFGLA"},
  "source": "patent US6710190B1",
  "about": "“3-heteroarylalkyl substituted gaba analogs” (Warner-Lambert Company, priority 1999, dated 2004)",
  "biological_target": "T1, α2δ subunit derived from porcine brain tissue (Sus scrofa, UniProt A0A287BIN3)",
  "T1 construct": "the α2δ subunit derived from porcine brain tissue was used; from tissue; host or cells: porcine brain tissue",
  "test": "[3H]gabapentin radioligand binding assay (α2δ assay)",
  "data": [
    {"smiles": "NCC1(CC(=O)O)CCCCC1", "note": "[Gabapentin, 1-(aminomethyl)-cyclohexaneacetic acid, reference compound]", "values": [
      {"measurement": "IC50", "result": "100 to 120", "unit": "nM"}
    ]}
  ]
}
